This note sets out measurements from the supplement of paper PMC11403291.

Protein sequences, listed by entry. Tags and fused reporters are not part of them. Lines headed by an entry give the natural chain unless they say otherwise; changes in a name come on top.
UniProt Q96GD4, whole entry: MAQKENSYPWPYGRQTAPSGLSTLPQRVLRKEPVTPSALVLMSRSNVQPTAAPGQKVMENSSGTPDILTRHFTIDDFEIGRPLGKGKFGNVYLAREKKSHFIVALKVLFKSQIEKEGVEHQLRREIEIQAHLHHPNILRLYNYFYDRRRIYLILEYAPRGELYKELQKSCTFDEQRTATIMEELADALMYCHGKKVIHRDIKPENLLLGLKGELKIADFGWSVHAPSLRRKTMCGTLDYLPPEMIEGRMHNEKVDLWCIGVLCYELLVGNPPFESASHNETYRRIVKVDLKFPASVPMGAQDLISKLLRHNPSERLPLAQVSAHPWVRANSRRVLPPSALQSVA
UniProt P49674: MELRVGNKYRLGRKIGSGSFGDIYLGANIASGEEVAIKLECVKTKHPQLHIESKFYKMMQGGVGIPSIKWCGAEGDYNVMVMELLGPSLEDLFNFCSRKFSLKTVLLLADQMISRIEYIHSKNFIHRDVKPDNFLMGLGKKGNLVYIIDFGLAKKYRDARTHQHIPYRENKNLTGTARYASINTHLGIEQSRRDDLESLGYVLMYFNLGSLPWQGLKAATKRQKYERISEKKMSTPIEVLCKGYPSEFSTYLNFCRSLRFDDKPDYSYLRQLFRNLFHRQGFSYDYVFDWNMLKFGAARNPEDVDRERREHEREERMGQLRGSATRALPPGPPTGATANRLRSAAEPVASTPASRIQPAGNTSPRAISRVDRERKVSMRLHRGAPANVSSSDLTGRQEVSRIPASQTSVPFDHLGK
UniProt P54764, whole entry: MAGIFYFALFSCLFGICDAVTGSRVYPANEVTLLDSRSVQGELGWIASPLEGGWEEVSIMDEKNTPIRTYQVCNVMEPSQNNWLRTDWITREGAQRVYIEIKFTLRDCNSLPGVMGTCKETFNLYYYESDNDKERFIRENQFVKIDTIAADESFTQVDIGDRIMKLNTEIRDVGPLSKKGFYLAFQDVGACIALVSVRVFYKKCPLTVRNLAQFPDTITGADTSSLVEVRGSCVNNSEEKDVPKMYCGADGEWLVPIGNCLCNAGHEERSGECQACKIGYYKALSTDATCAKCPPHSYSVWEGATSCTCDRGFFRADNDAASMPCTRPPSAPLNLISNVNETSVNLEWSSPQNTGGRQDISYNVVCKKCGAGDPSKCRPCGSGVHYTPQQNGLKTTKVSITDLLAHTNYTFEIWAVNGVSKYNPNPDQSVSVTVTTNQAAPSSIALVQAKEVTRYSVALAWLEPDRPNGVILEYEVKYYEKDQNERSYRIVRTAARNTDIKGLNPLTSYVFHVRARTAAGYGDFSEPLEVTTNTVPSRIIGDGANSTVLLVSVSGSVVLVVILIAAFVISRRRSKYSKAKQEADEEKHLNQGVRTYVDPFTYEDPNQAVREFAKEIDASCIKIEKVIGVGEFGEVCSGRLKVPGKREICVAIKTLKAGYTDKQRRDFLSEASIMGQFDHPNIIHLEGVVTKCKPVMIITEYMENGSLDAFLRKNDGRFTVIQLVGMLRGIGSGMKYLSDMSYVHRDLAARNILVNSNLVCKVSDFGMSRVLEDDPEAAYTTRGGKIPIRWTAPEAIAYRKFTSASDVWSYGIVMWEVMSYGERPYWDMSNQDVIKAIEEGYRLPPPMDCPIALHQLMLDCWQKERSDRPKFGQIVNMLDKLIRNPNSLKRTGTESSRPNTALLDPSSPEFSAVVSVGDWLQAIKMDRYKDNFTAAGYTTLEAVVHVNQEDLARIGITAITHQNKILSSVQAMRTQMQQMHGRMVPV
UniProt P21802, whole entry, looked up: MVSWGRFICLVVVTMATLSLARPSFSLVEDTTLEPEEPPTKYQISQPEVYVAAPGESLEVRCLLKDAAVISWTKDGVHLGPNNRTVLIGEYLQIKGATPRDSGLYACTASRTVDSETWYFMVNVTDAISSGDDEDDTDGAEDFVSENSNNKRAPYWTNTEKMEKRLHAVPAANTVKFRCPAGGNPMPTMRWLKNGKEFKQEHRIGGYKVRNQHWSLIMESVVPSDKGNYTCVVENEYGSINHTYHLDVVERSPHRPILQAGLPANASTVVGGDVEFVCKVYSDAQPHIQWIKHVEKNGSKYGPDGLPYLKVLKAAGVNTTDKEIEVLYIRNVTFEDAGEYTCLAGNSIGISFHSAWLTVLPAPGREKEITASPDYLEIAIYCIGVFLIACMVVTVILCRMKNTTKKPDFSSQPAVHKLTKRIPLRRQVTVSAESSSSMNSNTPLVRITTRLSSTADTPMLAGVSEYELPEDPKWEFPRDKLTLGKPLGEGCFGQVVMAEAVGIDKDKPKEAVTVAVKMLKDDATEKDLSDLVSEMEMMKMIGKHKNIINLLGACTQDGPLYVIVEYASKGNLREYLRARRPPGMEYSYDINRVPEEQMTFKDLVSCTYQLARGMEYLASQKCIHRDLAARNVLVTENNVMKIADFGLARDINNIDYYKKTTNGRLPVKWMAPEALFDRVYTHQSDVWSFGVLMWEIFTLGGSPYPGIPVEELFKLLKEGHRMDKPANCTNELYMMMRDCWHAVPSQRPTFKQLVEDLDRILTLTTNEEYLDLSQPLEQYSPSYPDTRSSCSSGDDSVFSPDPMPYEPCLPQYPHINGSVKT
UniProt O60307: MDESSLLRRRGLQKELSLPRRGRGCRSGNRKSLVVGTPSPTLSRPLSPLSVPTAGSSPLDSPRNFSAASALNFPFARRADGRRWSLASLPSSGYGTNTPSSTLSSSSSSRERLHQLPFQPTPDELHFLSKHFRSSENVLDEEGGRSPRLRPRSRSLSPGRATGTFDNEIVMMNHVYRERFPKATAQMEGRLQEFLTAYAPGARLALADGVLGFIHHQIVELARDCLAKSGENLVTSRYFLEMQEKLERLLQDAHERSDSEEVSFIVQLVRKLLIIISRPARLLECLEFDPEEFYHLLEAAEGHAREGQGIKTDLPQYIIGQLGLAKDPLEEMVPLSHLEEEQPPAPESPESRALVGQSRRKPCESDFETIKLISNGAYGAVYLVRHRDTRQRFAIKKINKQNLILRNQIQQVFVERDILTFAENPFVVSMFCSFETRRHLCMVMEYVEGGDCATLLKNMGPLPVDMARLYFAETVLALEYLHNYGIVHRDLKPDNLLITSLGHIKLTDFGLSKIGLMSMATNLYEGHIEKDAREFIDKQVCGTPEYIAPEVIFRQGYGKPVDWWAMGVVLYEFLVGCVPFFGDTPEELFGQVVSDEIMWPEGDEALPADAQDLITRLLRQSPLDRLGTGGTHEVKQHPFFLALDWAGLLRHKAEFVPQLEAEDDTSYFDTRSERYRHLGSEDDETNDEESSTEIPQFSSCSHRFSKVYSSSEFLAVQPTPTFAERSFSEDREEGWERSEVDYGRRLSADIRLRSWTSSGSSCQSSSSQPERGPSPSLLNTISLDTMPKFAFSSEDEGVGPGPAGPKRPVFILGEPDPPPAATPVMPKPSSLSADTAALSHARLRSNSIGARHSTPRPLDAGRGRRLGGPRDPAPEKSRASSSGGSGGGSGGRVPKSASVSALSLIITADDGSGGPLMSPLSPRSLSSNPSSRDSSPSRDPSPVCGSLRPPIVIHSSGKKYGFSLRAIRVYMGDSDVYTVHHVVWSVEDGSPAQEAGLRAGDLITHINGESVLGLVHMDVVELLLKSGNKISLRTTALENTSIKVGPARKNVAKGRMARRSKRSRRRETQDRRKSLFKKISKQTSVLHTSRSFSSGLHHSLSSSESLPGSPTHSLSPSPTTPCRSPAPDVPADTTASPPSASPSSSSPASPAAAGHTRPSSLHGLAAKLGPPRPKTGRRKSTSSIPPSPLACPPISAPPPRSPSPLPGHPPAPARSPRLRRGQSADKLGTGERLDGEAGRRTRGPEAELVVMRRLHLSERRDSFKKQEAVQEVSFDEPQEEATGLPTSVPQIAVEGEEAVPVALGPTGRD
UniProt Q14289, whole entry, looked up: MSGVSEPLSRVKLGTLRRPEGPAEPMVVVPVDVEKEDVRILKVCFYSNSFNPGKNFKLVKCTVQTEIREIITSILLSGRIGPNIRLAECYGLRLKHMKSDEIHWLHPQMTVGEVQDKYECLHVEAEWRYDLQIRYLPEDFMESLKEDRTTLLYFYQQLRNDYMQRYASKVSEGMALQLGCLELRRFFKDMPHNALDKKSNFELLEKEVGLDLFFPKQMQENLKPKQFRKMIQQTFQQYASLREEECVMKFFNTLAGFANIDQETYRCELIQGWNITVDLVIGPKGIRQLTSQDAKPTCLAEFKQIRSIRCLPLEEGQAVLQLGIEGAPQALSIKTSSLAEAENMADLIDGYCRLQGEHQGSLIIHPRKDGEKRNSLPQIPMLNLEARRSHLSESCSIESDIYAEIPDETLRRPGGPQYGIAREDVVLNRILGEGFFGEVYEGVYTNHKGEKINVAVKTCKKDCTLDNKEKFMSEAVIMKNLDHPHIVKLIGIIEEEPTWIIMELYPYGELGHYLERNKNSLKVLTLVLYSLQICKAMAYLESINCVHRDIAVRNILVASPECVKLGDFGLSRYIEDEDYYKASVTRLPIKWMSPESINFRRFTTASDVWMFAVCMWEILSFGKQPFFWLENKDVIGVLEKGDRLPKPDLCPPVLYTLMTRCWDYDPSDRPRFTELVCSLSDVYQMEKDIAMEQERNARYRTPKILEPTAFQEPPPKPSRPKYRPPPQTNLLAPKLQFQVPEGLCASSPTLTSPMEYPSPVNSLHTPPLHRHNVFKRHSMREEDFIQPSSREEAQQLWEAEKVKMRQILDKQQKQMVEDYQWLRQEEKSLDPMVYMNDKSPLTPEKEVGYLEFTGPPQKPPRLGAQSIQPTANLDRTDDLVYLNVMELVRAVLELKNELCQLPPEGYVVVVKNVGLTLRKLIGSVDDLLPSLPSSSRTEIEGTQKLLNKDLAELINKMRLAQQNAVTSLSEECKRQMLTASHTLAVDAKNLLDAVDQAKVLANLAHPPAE

Molecules are shown by their SMILES.

Some targets named below: AURKB (UniProt Q96GD4); CSNK1E (UniProt P49674); EPHA4 (UniProt P54764); FGFR2 (UniProt P21802); MAST3 (UniProt O60307); PTK2B (UniProt Q14289).
Holding throughout (assay): apparent dissociation constant pKd app (kinobead competition) (-log10(M)); higher = stronger binding
The next experiment concerns the target T1, CHEK1 (UniProt O14757).
T1 sequence (whole entry): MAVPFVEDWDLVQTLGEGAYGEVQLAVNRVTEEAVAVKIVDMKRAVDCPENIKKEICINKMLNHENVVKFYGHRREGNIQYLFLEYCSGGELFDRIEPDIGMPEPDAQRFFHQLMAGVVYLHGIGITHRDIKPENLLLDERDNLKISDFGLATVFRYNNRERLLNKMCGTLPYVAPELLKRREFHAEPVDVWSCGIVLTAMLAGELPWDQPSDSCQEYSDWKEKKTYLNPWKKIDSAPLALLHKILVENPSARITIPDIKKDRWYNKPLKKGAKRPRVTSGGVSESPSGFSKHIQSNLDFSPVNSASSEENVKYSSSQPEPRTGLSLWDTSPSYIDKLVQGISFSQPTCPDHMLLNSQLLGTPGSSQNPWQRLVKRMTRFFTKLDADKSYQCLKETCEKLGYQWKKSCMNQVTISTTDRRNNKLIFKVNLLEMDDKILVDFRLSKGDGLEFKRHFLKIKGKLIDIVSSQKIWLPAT

The target in a further experiment is T2, MERTK (UniProt Q12866).
T2 sequence (whole entry): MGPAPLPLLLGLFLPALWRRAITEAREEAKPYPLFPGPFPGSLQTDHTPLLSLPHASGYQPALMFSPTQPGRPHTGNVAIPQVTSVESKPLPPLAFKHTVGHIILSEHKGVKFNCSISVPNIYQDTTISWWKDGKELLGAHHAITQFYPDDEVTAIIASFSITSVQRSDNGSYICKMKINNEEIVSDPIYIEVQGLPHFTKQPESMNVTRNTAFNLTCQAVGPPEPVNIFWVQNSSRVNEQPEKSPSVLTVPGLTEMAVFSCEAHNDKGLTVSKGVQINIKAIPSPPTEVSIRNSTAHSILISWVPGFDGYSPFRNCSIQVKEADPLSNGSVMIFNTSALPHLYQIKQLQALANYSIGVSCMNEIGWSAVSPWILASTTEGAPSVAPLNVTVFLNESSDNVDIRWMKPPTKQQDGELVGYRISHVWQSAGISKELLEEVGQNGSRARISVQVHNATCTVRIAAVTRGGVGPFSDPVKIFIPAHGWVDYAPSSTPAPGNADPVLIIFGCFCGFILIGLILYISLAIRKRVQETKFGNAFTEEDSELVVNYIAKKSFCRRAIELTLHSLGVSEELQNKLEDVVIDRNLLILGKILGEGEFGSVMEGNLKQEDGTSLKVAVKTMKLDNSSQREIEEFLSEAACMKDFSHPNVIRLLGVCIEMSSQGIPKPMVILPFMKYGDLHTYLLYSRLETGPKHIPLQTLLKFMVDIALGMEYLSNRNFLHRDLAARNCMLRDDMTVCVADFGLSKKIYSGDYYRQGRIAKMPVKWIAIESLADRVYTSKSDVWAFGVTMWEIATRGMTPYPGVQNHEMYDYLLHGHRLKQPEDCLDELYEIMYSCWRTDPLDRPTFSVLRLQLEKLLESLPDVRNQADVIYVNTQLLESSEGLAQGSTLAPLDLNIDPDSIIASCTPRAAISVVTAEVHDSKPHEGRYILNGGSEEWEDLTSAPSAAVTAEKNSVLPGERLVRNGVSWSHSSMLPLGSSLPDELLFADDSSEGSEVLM

The next experiment concerns the target T3, TNK1 (UniProt Q13470).
T3 sequence (whole entry): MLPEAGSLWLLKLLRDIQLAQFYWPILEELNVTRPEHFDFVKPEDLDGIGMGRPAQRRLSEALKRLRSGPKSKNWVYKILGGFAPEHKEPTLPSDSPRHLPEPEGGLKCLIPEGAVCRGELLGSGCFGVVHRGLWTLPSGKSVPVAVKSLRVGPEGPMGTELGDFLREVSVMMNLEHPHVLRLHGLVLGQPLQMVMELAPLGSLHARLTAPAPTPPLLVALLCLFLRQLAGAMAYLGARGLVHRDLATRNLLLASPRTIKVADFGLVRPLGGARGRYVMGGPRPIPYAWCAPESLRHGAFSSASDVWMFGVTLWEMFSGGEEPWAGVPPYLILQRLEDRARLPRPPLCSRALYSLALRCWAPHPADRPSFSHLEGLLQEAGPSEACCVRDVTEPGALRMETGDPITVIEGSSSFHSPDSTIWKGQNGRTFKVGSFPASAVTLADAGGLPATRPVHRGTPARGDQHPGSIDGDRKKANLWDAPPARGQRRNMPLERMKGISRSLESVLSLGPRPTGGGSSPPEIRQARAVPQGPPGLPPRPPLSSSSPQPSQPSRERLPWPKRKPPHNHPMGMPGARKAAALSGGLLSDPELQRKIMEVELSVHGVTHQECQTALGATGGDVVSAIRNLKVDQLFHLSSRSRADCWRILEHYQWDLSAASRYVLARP

Turning to `NC(=O)c1cccc2cn(-c3ccc([C@@H]4CCCNC4)cc3)nc12` [Niraparib], the “apparent dissociation constant pKd app (-log10)” value was < 4.8 at AURKB; < 4.7 on CHEK1; < 4.5 on CSNK1E; < 4.6 on EPHA4; < 4.7 at FGFR2; < 4.7 on MAST3. In addition, the results for the “apparent dissociation constant pKd app (-log10)” value at MERTK, on PTK2B and on TNK1 were < 4.6, < 4.8 and < 4.9, respectively.
Regarding `Cn1ncnc1[C@H]1c2n[nH]c(=O)c3cc(F)cc(c23)N[C@@H]1c1ccc(F)cc1` [Talazoparib], the “apparent dissociation constant pKd app (-log10)” value was < 4.8 at AURKB; < 4.7 on CHEK1; < 4.5 at CSNK1E; < 4.6 on EPHA4; < 4.7 on FGFR2; < 4.7 at MAST3. The figures for the “apparent dissociation constant pKd app (-log10)” value at MERTK, on PTK2B and on TNK1 were < 4.6, < 4.8 and < 4.9, respectively.
Consider `O=C(c1cc(Cc2n[nH]c(=O)c3ccccc23)ccc1F)N1CCN(C(=O)C2CC2)CC1` [Olaparib], for which the “apparent dissociation constant pKd app (-log10)” value is < 4.8 on AURKB; < 4.7 at CHEK1; < 4.5 at CSNK1E; < 4.6 at EPHA4; < 4.7 at FGFR2; < 4.7 at MAST3. For the same molecule, the “apparent dissociation constant pKd app (-log10)” value at MERTK is < 4.6; on PTK2B, < 4.8; on TNK1 it was < 4.9.
